Drawing on article PMC9088825, “N ^α-arylsulfonyl histamines as selective β-glucosidase inhibitors” (RSC Advances, 2018), this text covers IC50 for one molecule.

Protein sequences, listed by entry. Tags and fused reporters are not part of them. Residues count along the entry.
UniProt O42275, 24-633: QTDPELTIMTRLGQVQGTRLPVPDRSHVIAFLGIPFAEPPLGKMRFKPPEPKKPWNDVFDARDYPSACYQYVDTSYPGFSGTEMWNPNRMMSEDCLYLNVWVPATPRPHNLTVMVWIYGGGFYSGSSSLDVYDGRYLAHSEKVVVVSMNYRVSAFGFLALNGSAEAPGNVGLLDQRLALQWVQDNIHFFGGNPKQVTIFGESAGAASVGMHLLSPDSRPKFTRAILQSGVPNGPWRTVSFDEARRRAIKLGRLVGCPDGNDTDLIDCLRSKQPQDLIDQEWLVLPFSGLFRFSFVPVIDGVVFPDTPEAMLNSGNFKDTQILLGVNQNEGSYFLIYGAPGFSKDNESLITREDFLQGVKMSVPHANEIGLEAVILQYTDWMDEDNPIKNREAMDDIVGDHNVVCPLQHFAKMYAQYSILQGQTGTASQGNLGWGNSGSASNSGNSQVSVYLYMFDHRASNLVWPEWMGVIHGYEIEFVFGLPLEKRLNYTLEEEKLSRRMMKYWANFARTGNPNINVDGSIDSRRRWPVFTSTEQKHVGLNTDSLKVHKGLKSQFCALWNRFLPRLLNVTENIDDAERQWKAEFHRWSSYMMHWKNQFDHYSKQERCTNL

This assay addresses acetyl cholinesterase (AChE) (Electrophorus electricus, UniProt O42275). Type of assay: biochemical, electric eel. As to conditions: read-out: IC50 (AChE), reference inhibitor. On the procedure: AChE activity measurement was carried on based on Ellman's method.[46] […] The plate was shaken for 2 s and the increase in absorbance at 405 nm was monitored at 37 °C for 15 min.

The IC50 is the point on the concentration scale where inhibition reaches its midpoint. `CNC(=O)Oc1ccc2c(c1)[C@]1(C)CCN(C)[C@@H]1N2C` [eserine, reference compound]: the IC50 worked out at 1170 nM.
